According to patent publication US20150306107A1, “SAA Derivative Compound Restores eNOS And Inhibits Oxidative Stress-Induced A Diseases In Hypoxia” (JANSFAT BIOTECHNOLOGY CO., LTD., priority 2014, published 2015):

test system: ROCK II; test: Western blotting of ROCK II expression in isolated rat pulmonary artery ring, short-term (acute) hypoxia or normoxia; type: cell-based; details: acute hypoxia; Normoxia 100, Hypoxia 560 ± 21
Protocol: In our in vitro short-term experiment, isolated rat pulmonary artery was grown under normoxia (20% O2) or hypoxia (1% O2) at 37° C. for 24 hrs as was previously done (Wu BN, et al. Int J Immunopathol Pharmacol 24:925, 2011). The heart weight and body weight ratio (HW/BW) of the rats treated with one of SPAAX-1, SPAAX-1 RX complex, Sildenafil or Sildenafil RX complex each measured on the 21st hypoxic day. All animal care and the experimental protocols of this study were approved by the Animal Care and Use Committee of the Kaohsiung Medical University. Male Wistar rats (200-250 g), provided by the National Laboratory Animal Breeding and Research Center (Taipei, Taiwan), were housed under constant temperature and controlled illumination. Food and water were available ad libitum.
Whole right lung tissues of hypoxia-treated and untreated rats were isolated and cut into small strips and placed into an extraction buffer (Tris 10 mM, pH 7.0, NaCl 140 mM, PMSF 2 mM, DTT 5 mM, NP-40 0.5%, pepstatin A 0.05 mM and leupeptin 0.2 mM) for protein extraction, and then centrifuged at 12,500 g for 30 min. To measure the expression levels of the proteins, the total proteins were extracted and Western blotting analysis was performed as described previously (Bivalacqua T J, et al., 2013, TJ PLoSONE 8: e68028. doi:10.1371/journal. pone.0068028). Briefly, the protein extract was boiled to a ratio of 4:1 with a sample buffer (Tris 100 mM, pH 6.8, glycerol 20%, SDS 4% and bromophenol blue 0.2%). Electrophoresis was performed using 10% SDS-polyacrylamide gel (2 hr, 100 V, 40 mA, […] protein per lane). Separated proteins were transferred to PVDF membranes treated with 5% fat-free milk powder to block the nonspecific IgGs (90 min, 100 V) and incubated for one hour with a specific protein antibody. The blot was then incubated with anti-mouse or anti-goat IgG linked to alkaline phosphatase (1:1000) for 1 hr. […]

CCCc1nn(C)c2c(=O)[nH]c(-c3cc(S(=O)(=O)N4CCN(C)CC4)ccc3OCC)nc12.Cl [Reagent 1003, Sildenafil HCl complex] and CCCc1nn(C)c2c(=O)[nH]c(-c3cc(S(=O)(=O)N4CCN(C)CC4)ccc3OCC)nc12.O=C(O)C(O)C(O)C(=O)O [Reagent 1014, Sildenafil tartarate complex] are within error of each other in “ROCK II expression, Pulmonary Artery Ring” value: 228 ± 23 for the first, 220 ± 24 for the second.

With CCCCCCCCC=CCCCCCCCC(=O)O.CCCc1nn(C)c2c(=O)[nH]c(-c3cc(S(=O)(=O)N4CCN(C)CC4)ccc3OCC)nc12 [Reagent 1013, Sildenafil oleate complex] the “ROCK II expression, Pulmonary Artery Ring” value was 210 ± 22.
